This experiment deals with dipeptidyl peptidase-IV enzyme (DPP-4) (Homo sapiens (Human), UniProt P27487). The experiment in a line: continuous fluorometric assay with substrate Gly-Pro-AMC (DPP-4 inhibition). The format is biochemical. The following applies: soluble human DPP-4, 50 μM Gly-Pro-AMC, pH 7.5, room temperature. The procedure: Inhibition constants are determined as follows. A continuous fluorometric assay is employed with the substrate Gly-Pro-AMC, which is cleaved by DPP-4 to release the fluorescent AMC leaving group. The kinetic parameters that describe this reaction are as follows: […] A typical reaction contains approximately 50 pM enzyme, 50 μM Gly-Pro-AMC, and buffer (100 mM HEPES, pH 7.5, 0.1 mg/ml BSA) in a total reaction volume of 100 μL. Liberation of AMC is monitored continuously in a 96-well plate fluorometer using an excitation wavelength of 360 nm and an emission wavelength of 460 nm. Under these conditions, approximately 0.8 μM AMC is produced in 30 minutes at 25 degrees C. The enzyme used in these studies was soluble (transmembrane domain and cytoplasmic extension excluded) human protein produced in a baculovirus expression system (Bac-To-Bac, Gibco BRL). […] To measure the dissociation constants for compounds, solutions of inhibitor in DMSO were added to reactions containing enzyme and substrate (final DMSO concentration is 1%). All experiments were conducted at room temperature using the standard reaction conditions described above. To determine the dissociation constants (Ki), reaction rates were fit by non-linear regression to the Michaelis-Menton equation for competitive inhibition. The errors in reproducing the dissociation constants are typically less than two-fold.

Protein sequences, listed by entry. Tags and fused reporters are not part of them. Residues count along the entry.
UniProt P27487, 29-766: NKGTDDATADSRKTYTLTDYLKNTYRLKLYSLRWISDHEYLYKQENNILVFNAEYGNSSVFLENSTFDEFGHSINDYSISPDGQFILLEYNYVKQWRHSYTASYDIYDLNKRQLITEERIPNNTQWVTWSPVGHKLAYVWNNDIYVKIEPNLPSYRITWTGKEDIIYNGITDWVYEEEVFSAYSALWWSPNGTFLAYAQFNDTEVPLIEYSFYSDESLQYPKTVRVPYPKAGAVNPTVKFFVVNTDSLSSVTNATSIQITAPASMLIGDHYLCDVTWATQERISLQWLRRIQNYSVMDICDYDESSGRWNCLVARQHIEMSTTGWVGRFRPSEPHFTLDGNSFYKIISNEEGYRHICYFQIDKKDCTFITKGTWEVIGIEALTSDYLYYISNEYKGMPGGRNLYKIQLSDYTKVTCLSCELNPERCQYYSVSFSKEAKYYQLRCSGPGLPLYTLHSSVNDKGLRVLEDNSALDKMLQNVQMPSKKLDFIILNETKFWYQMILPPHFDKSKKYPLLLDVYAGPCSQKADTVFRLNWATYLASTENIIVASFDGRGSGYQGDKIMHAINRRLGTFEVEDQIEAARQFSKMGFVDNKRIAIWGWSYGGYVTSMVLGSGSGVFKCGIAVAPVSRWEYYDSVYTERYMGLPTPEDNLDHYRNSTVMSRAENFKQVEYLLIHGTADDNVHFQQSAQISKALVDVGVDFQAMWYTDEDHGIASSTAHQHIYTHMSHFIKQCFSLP

Structures are written as SMILES. pIC50: −log10 of the molar value.

As usually defined, the pIC50 is −log10 of the IC50, conventionally taken in molar units. A higher pIC50 goes with a low IC50.

Take `C[C@]1(N2Cc3c[nH]nc3C2)CO[C@H](c2cc(F)ccc2F)[C@@H](N)C1` [Example 2]: the pIC50 was 7.46.
